Test system: haloperidol-induced catalepsy
Test: Haloperidol-induced catalepsy test for antiparkinsonian effects
Format: in vivo
Conditions: Rattus norvegicus, po; p.o. 1 h before haloperidol 0.25 mg/kg s.c.; read-out: Minimum effective dose (peroral administration)
Text: 1 ) a vertical wire netting (40×40 cm high).
2) a horizontal bar 9 cm above the floor
3) a 9 cm high block (bar)
4) a 3 cm high block (cork)

Row | SMILES | minimal effective dose
1 | COC(=O)[C@@H]1[C@@H](c2ccc3ccccc3c2)C[C@@H]2CC[C@H]1N2C [(1R,2R,3S)-2-carbomethoxy-3-(2-naphthyl)tropane] | 1 mg/kg
2 | COC(=O)[C@@H]1[C@@H](c2ccc(Cl)c(Cl)c2)C[C@@H]2CC[C@H]1N2C [(1R,2R,3S)-2-carbomethoxy-3-(3,4-dichlorophenyl)tropane] | 0.25 mg/kg
